The values below come from ChEMBL document CHEMBL1150292, “4-benzyl-1H-imidazoles with oxazoline termini as histamine H3 receptor agonists” (J Med Chem, 2008).

Chains of the proteins cited; added tags and fusions are not shown. Lines headed by an entry give the natural chain unless they say otherwise; changes in a name come on top.
UniProt Q9Y5N1: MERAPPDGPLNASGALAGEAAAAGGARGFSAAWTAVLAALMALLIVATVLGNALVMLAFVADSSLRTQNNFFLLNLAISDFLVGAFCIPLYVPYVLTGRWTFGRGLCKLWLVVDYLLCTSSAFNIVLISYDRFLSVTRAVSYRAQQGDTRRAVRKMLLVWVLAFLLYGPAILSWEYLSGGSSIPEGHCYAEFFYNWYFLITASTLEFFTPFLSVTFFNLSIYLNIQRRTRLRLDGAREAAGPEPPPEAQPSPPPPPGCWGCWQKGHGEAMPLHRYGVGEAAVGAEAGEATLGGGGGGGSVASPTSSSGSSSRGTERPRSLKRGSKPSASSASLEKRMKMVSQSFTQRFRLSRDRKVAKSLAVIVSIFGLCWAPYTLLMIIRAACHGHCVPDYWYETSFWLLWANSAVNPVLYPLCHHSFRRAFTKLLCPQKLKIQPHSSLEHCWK

The target in the assay is Histamine H3 receptor (Homo sapiens, UniProt Q9Y5N1). Briefly: Displacement of [3H]N-alpha-methylhistamine from human histamine H3 receptor expressed in CHO cells. Type of assay: cell-based. (Displacement assays read how much labelled ligand stays bound in the presence of the test substance.)

As for `NC(=NCc1ccc(Cl)cc1)SCCCc1cnc[nH]1` [CLOBENPROPIT], the affinity, expressed as Ki, was 0.339 nM.
